The values that follow come from patent US20130303507A1 (Novartis AG, priority 2011, published 2013).

The chains behind the UniProt entries cited, without tags or fusion partners.
UniProt P50750, whole entry: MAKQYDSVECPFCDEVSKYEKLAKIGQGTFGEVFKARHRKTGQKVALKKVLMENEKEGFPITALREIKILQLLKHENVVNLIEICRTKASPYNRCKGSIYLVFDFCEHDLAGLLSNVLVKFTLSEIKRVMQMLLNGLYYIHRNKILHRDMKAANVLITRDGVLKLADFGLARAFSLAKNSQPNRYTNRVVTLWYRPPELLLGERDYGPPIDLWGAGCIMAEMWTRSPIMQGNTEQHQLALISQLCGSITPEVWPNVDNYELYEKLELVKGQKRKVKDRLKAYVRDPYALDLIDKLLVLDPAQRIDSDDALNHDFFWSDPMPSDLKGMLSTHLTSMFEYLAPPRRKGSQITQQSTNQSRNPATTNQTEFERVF
UniProt O60563, whole entry partner: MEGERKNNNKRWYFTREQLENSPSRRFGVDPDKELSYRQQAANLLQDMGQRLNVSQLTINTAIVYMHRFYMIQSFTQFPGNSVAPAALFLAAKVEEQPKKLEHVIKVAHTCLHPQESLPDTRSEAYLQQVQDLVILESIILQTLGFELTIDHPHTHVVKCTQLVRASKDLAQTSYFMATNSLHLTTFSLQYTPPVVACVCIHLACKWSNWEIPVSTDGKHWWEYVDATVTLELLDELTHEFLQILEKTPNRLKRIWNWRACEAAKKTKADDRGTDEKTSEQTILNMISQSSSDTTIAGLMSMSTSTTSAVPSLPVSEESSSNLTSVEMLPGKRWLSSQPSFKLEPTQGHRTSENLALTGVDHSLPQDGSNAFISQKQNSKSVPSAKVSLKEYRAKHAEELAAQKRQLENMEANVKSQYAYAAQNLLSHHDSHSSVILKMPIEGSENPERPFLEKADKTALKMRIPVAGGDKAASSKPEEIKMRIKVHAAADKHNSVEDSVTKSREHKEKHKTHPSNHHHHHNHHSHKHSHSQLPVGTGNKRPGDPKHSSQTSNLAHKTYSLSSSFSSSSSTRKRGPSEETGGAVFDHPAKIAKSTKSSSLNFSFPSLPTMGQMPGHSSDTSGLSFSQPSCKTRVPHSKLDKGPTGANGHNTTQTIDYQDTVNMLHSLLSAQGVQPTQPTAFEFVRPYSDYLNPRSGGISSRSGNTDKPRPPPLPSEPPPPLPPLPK

The test deals with Cdk9/cyclinT1 (Homo sapiens, UniProt P50750). Nature of the test: Cdk9/cyclinT1 Alpha Screen protocol. The following applies: read-out: CDK9_cyclinT1_AS2_IC50; neutral species; individual determinations.

pIC50: −log10 of the molar value. Several values for one entry are separate records, joined by “and”; a condition that tells them apart may be missing. Equal values may be shown once.

With `COC[C@@H](C)N[C@H]1CC[C@H](Nc2cc(-c3cccc(NCC4(C#N)CC4)n3)c(Cl)cn2)CC1` [Cmpd 400, 1-(((5′-chloro-2′-((trans-4-(((R)-1-methoxypropan-2-yl)amino)cyclohexyl)amino)-[2,4′-bipyridin]-6-yl)amino)methyl)cyclopropane-carbonitrile], the pIC50 is 9.68 and 9.41.
